Values of other authors in Sander's compilation of Henry's law constants (doi:10.1063/1.555654).

Test: Henry solubility constant Hcp at 298.15 K (mol/(m3 Pa))
Conditions: reference: Mackay and Shiu (1981); cited value

- Henry solubility constant Hcp: 0.0011
SMILES: CCl [chloromethane]
